# Binding of CDR-mutated scFvs to a peptide of the spike HR2 region

Target peptide (SARS-CoV-2 spike, HR2 region): PDVDLGDISGINAS

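Phage display of a naive human antibody library on the peptide gave the parent. Designed CDR sequences, proposed from the first random library and measured here. Several design methods are mixed in this list. In AlphaSeq, yeast of one mating type display the scFv and yeast of the other type display the target. The frequency of each diploid, read from paired DNA barcodes, reflects how well the two displayed proteins bind. Scores were corrected for input abundance and mapped to Kd with protein pairs of known affinity run in the same pool. Each pool was mated in six replicate cultures.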

The variants keep the light chain, the linker and the frameworks of Ab-14 (scFv order VH, a (GGGGS)3 linker, VL).
VH: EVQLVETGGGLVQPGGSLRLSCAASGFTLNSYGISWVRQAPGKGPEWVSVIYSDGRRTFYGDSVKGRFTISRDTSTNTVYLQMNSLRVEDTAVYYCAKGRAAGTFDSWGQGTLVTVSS
VL: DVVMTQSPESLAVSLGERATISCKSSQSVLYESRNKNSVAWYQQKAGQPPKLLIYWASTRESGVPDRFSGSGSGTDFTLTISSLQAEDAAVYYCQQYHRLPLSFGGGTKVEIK

Variants are written as CDR1, CDR2 and CDR3 of the heavy chain (limits as in the source). Parent: GFTLNSYGIS, VIYSDGRRTFYGDSVK, GRAAGTFDS.
This list holds designs with more than six substitutions.
Numbers give log10(Kd / nM), so 0 is 1 nM and 3 is 1 µM. Smaller is tighter.
"ND" means that the variant was in the library but no mating with the target was seen in that replicate; the authors take this as a sign of poor binding, and no number exists.
The authors averaged sequences with at least three values out of six and counted those with two or fewer as poor binders.
As a blank, each scFv also met three strains without target: over all heavy chain designs, 1% of these pairings were detected, typically at 2.08 and seldom below 0.84. Also given: how often the same scFv was detected with the empty control strains.
Values of this round are not directly comparable with the first-round values of the same sequences.

Variant GFNIDEYGIS / VIYADGVRTAYADKVK / GFNQVLSVN gave -0.20, -0.40, -0.71, -0.26, -0.43, 0.33 (controls 0 of 18).
Variant GFDLNEYGIS / VIYADGRRTFYSDSVK / GENAGFFDQ gave ND, ND, ND, ND, ND, ND (controls 0 of 18).
Variant GFSLDEYGIS / VIYADGRRTAYTQNVK / GLMQQGRTM gave ND, ND, ND, ND, ND, ND (controls 0 of 18).
Variant GFDLNEYGIS / VIYADGRRTAYIDSVK / GTAAGTFDV gave 0.05, 0.43, -0.17, -0.50, 0.08, 0.23 (controls 0 of 18).
Variant GFDLNEYGIS / VIYADGVRTQYIDSVK / GEQAGTFDS gave ND, 0.80, 0.69, ND, 0.12, ND (controls 0 of 18).
Variant GFQLDEYGIS / VIYADGQRTAYSKNVK / GYIDFKLIG gave ND, ND, 2.24, ND, ND, ND (controls 1 of 18).
Variant GFNLDEYGIS / VIYADGHRMFVSNSVK / GENADFLFV gave ND, ND, ND, ND, ND, ND (controls 0 of 18).
Variant GFKIDEYGIS / VIYADGIRRAYADNVK / GYTDDAFDM gave ND, ND, ND, ND, ND, ND (controls 0 of 18).
Variant GFNLDEYGIS / VIYADGARTAYTNKVK / GGNWMISVA gave ND, ND, ND, ND, ND, ND (controls 0 of 18).
Variant GFDLQEYGIS / VIYADGMRVGYTDSVK / GTQGISNIE gave ND, ND, ND, ND, ND, ND (controls 1 of 18).
Variant GKDINEYGVS / VIYADGKRNAYQNSVK / GKNAGAFVD gave ND, ND, ND, ND, ND, ND (controls 0 of 18).
Variant GFNLNEYGIS / VIYADGTRMGYANSVK / GAVHGFYLI gave ND, ND, ND, ND, ND, ND (controls 0 of 18).
Variant GFTLNSYGIS / AIYSDGRRTYYSDSVK / GQSAGTIDW gave ND, ND, ND, ND, ND, ND (controls 0 of 18).
Variant GFKIDEYGIS / VIYADGMRRSYADSFK / GAESGYMVV gave ND, ND, ND, ND, ND, ND (controls 0 of 18).
Variant GFDLNEYGIS / VIYADGLRTAYADSVK / GENAGTFDM gave 0.33, 0.60, 0.53, 0.82, 0.71, 0.61 (controls 0 of 18).
Variant GFDLDEYGIS / VIYADGMRTSYADSVK / GEVAGTFDV gave 0.16, -0.58, -0.53, -0.21, -0.01, -0.29 (controls 2 of 18).
Variant GFDLNEYGIS / VIYADGVRTSYADSVK / GENAGTFDM gave 1.09, 0.22, -0.02, 0.32, 0.61, 0.69 (controls 0 of 18).
Variant GFDLNEYGIS / VIYADGRRTFYADSVK / GNVAGTFSQ gave 0.32, 0.08, 0.20, 0.01, 0.17, 0.09 (controls 0 of 18).
Variant GKHLDEYGIS / VIYADGQRVFYSDTVK / GNQGFTVDV gave ND, ND, ND, ND, ND, ND (controls 0 of 18).
Variant GFDLNEYGIS / VIYADGMRKAYSDSVK / GNQAGTFDV gave -0.08, -0.48, -0.50, -0.60, -0.54, -0.57 (controls 0 of 18).
Variant GFDLNEYGIS / VIYADGKRTAYADSVK / GNVGGTFDV gave -0.12, -0.19, -0.14, -0.25, -0.32, -0.13 (controls 1 of 18).
Variant GFDLDEYGIS / VIYADGVRTAYSDSVK / GNNAGTFDI gave 1.05, 0.91, 0.77, 0.36, 1.09, 0.99 (controls 0 of 18).
Variant GRNLDEYGIS / VIYADGQRTSYIDNVK / DGDAVDFDM gave ND, ND, ND, ND, ND, ND (controls 0 of 18).
Variant GFDLDEYGIS / VIYADGMRTVYADSVK / GETAGTFDL gave -0.30, -0.27, -0.45, -0.85, -0.18, -0.23 (controls 0 of 18).
Variant GFDLNEYGIS / VIYADGMRTAYADDVK / GQNAGTFDQ gave -0.47, -0.63, -0.69, -0.48, -0.75, -0.31 (controls 0 of 18).
Variant GFNLDEYGIS / VIYADGQRVQYDDPVK / GEQAGTVMV gave ND, ND, ND, ND, ND, ND (controls 1 of 18).
Variant GFKLEEYGIS / VIYADGKRVAYQDKVK / GKHAGMFLV gave ND, ND, ND, ND, ND, ND (controls 0 of 18).
Variant GFDLDEYGIS / VIYADGRRTVYADSVK / GENAGTFDV gave ND, ND, ND, -1.04, -1.44, -0.71 (controls 0 of 18).
Variant GFDLQEYGIS / VIYADGSRTAYVQNVK / GLTLDSYVF gave ND, ND, ND, ND, ND, ND (controls 0 of 18).
Variant GFDIQEYGIS / VIYADGIRSAYINNVK / GDYGSQFFE gave ND, ND, ND, ND, ND, ND (controls 0 of 18).
Variant GFDLDEYGIS / VIYADGRRTYYADDVK / GNVAGTFDV gave -0.53, -0.62, -0.55, -0.68, -0.69, -0.59 (controls 0 of 18).
Variant GFDLNEYGIS / VIYADGKRTAYADSVK / GGNAGTFDV gave -0.26, 0.12, -0.29, -0.08, -0.14, 0.01 (controls 0 of 18).
Variant GFDLNEYGIS / VIYADGRRTFYADSVK / GNSAGTFNV gave -0.36, -0.49, -0.61, -0.62, -0.64, -0.65 (controls 0 of 18).
Variant GFTLNQYGIS / VIYNCGRRTFYSMSVK / GRSAGQFDL gave ND, ND, ND, ND, ND, ND (controls 0 of 18).
Variant GFDLDEYGIS / VIYADGMRTAYADSVK / GEQAGTFDV gave 1.12, -0.59, 0.32, -0.12, -0.07, 1.09 (controls 0 of 18).
Variant GFDLDEYGIS / VIYADGMRTAYADSVK / GEEAGTFDV gave 0.64, -0.57, 0.09, -0.39, -0.32, 0.48 (controls 0 of 18).
Variant GFDLDEYGIS / VIYADGMRTAYADSVK / GNQAGTFDL gave 0.24, 0.30, 0.20, 0.22, -0.07, 0.68 (controls 1 of 18).
Variant GFDLNEYGVS / VIYADGQRTYYTESVK / GKFWDQLMA gave ND, ND, ND, ND, ND, ND (controls 0 of 18).
Variant GFNLDEYGIS / VIYADGKRTFYSDNVK / GEAAGTFDI gave 0.01, -0.44, -0.19, -0.44, -0.41, -0.17 (controls 0 of 18).
Variant GFDLEDYGIS / VIYADGMRTAYADSVK / GNVAGTFDV gave -0.17, -0.74, -0.56, -0.71, -0.37, -0.34 (controls 0 of 18).
Variant GFDLNEYGIS / VIYADGVRTAYADDVK / GQVAGTFDV gave -0.68, -0.54, -0.73, -0.66, -0.49, -0.40 (controls 0 of 18).
Variant GFDLNEYGIS / VIYADGMRTFYADSVK / GNVAGTFFS gave -0.38, -0.36, -0.25, -0.13, -0.71, -0.39 (controls 0 of 18).
Variant GFDLNEYGIS / VIYADGKRTAYANSVK / GNVAGTFDI gave -0.20, -0.41, -0.22, -0.12, -0.46, -0.34 (controls 1 of 18).
Variant GFDLNEYGIS / VIYADGSRTFYSDSVK / GQSAGTFDA gave -0.21, -0.23, -0.33, 0.05, -0.33, 0.10 (controls 0 of 18).
Variant GFTLDEYGIS / VIYADGRRTFYTDSVK / GENAGTFDV gave 0.06, 0.46, 0.13, 0.22, -0.01, 0.43 (controls 0 of 18).
Variant GFDLNEYGIS / VIYADGMRTAYADSVK / GVNAGTFDL gave -0.04, -0.72, -1.08, -0.98, -1.12, -0.92 (controls 0 of 18).
Variant GFDLDEYGIS / VIYADGKRTAYADSVK / GETAGTFDM gave -0.30, -0.74, -0.40, -0.42, -0.59, -0.26 (controls 0 of 18).
Variant GFDLGEYGIS / VIYADGQRRFYQDAVK / GQSSVNYLA gave 0.86, 1.02, 0.18, 0.32, 1.21, 0.88 (controls 0 of 18).

The last 5 entries again:

{"CDR-H1": "GFDLNEYGIS", "CDR-H2": "VIYADGSRTFYSDSVK", "CDR-H3": "GQSAGTFDA", "log10 Kd (nM) by replicate": "-0.21, -0.23, -0.33, 0.05, -0.33, 0.10", "signal with controls": "0 of 18"}
{"CDR-H1": "GFTLDEYGIS", "CDR-H2": "VIYADGRRTFYTDSVK", "CDR-H3": "GENAGTFDV", "log10 Kd (nM) by replicate": "0.06, 0.46, 0.13, 0.22, -0.01, 0.43", "signal with controls": "0 of 18"}
{"CDR-H1": "GFDLNEYGIS", "CDR-H2": "VIYADGMRTAYADSVK", "CDR-H3": "GVNAGTFDL", "log10 Kd (nM) by replicate": "-0.04, -0.72, -1.08, -0.98, -1.12, -0.92", "signal with controls": "0 of 18"}
{"CDR-H1": "GFDLDEYGIS", "CDR-H2": "VIYADGKRTAYADSVK", "CDR-H3": "GETAGTFDM", "log10 Kd (nM) by replicate": "-0.30, -0.74, -0.40, -0.42, -0.59, -0.26", "signal with controls": "0 of 18"}
{"CDR-H1": "GFDLGEYGIS", "CDR-H2": "VIYADGQRRFYQDAVK", "CDR-H3": "GQSSVNYLA", "log10 Kd (nM) by replicate": "0.86, 1.02, 0.18, 0.32, 1.21, 0.88", "signal with controls": "0 of 18"}

From the AlphaSeq antibody data of Li et al. 2023 (doi:10.1038/s41467-023-39022-2), copy in the FLAb collection.